How the values were obtained:
[1] = test system: SkBr3 cells; assay: Growth inhibition of SkBr3 breast cancer cells, DAPI nuclei count; assay type: cell-based; conditions: Her2+ SkBr3 cell line, FIG. 1B; IRX4204 10-1000 nM, trastuzumab 0.1-10 μg/ml
[2] = test system: MCF7 cells; assay: Growth inhibition of MCF7 breast cancer cells, DAPI nuclei count; assay type: cell-based; conditions: Her2− MCF7 cell line, FIG. 1A; IRX4204 10-1000 nM, trastuzumab 0.1-10 μg/ml

Herceptin: Trastuzumab (sold as HERCEPTIN®) binds to domain IV of the extracellular segment of Her2 [reference compound]
growth inhibitory effect (in words) [1]: moderate growth inhibitory effect
growth inhibitory effect (in words) [2]: neither agent had more than marginal effect
